From patent US10030026B2, “Difluoroethylpyridine derivatives as NR2B NMDA receptor antagonists” (Rugen Holdings (Cayman) Limited, priority 2014, dated 2018)
Like-named read-outs stand apart in the source and are kept apart here.

By UniProt entry, the sequences of proteins in these tests, tags left out. Where a name states a change or a piece, a line headed by the entry shows the natural chain unless it says otherwise. Residues count along the entry.
UniProt Q12879, 23-1464: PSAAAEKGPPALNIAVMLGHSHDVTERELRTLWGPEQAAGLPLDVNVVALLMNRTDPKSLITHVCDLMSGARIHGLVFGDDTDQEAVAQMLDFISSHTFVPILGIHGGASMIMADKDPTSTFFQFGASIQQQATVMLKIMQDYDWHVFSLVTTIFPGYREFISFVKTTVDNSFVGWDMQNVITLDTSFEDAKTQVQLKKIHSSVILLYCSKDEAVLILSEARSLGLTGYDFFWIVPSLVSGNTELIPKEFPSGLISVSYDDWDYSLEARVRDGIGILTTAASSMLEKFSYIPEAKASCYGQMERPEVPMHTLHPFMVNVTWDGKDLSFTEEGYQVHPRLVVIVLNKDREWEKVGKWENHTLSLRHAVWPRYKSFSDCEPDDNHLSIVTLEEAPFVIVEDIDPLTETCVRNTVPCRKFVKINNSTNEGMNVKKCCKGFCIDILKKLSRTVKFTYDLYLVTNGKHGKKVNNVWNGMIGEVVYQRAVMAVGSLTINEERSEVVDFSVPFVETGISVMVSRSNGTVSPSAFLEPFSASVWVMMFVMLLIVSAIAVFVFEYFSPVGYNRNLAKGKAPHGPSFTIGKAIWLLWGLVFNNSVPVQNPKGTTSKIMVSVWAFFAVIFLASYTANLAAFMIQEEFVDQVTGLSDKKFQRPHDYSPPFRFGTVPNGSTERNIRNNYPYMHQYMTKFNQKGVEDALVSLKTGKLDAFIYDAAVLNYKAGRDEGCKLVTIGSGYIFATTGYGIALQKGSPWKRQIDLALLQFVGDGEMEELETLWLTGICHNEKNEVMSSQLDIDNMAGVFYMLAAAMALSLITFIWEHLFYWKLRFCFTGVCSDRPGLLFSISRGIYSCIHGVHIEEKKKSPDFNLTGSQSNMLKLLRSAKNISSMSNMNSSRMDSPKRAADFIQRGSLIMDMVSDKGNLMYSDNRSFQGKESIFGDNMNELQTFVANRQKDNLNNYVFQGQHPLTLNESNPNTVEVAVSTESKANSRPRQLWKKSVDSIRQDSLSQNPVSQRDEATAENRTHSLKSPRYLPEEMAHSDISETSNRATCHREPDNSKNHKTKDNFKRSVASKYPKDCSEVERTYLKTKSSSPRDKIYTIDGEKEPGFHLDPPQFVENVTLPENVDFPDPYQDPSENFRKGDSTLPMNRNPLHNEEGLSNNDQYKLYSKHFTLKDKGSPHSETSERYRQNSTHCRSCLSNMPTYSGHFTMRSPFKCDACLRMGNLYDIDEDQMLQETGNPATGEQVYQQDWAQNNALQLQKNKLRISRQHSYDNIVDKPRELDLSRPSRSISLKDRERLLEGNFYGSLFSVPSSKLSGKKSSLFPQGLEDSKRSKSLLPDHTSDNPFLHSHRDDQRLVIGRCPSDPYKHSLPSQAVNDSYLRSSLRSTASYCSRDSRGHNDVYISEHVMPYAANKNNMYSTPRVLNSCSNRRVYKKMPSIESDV
UniProt Q13224, 27-1484: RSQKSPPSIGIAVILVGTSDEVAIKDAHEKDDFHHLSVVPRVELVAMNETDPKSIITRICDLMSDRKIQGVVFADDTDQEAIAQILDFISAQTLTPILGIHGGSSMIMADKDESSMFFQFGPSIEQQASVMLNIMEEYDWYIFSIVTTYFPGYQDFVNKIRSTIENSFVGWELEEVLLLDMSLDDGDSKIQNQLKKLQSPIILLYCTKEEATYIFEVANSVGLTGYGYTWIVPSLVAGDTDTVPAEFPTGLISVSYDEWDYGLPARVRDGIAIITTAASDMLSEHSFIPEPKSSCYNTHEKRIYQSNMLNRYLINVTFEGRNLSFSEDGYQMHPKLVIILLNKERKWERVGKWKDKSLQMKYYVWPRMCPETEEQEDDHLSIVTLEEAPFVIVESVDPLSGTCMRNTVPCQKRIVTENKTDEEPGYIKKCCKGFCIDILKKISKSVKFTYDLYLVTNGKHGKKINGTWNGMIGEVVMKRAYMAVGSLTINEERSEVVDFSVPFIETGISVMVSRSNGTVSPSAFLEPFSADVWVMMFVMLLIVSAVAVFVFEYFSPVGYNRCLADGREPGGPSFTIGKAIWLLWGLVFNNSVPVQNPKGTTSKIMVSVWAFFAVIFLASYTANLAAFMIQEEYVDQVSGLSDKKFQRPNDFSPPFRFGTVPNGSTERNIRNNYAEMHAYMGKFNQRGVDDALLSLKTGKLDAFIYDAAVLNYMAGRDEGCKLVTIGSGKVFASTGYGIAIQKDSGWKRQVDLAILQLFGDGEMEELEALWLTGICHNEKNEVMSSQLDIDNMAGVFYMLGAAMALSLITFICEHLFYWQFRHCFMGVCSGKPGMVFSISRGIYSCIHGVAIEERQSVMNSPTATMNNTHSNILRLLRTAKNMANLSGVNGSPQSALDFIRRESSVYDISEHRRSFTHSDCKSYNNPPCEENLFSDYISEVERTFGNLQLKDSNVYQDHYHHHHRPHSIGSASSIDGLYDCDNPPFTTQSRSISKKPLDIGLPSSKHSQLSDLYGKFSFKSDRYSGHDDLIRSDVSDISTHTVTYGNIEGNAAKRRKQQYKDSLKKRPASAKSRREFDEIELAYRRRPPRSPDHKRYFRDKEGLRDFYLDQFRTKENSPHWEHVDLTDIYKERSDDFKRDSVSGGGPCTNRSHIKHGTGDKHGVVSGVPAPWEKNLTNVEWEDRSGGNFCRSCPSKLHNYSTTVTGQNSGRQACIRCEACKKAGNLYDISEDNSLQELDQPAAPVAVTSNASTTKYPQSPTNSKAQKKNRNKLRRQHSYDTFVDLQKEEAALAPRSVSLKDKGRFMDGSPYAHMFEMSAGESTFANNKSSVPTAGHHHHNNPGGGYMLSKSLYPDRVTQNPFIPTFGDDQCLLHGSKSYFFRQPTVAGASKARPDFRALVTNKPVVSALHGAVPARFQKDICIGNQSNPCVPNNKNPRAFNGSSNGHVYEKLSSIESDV
UniProt Q12809: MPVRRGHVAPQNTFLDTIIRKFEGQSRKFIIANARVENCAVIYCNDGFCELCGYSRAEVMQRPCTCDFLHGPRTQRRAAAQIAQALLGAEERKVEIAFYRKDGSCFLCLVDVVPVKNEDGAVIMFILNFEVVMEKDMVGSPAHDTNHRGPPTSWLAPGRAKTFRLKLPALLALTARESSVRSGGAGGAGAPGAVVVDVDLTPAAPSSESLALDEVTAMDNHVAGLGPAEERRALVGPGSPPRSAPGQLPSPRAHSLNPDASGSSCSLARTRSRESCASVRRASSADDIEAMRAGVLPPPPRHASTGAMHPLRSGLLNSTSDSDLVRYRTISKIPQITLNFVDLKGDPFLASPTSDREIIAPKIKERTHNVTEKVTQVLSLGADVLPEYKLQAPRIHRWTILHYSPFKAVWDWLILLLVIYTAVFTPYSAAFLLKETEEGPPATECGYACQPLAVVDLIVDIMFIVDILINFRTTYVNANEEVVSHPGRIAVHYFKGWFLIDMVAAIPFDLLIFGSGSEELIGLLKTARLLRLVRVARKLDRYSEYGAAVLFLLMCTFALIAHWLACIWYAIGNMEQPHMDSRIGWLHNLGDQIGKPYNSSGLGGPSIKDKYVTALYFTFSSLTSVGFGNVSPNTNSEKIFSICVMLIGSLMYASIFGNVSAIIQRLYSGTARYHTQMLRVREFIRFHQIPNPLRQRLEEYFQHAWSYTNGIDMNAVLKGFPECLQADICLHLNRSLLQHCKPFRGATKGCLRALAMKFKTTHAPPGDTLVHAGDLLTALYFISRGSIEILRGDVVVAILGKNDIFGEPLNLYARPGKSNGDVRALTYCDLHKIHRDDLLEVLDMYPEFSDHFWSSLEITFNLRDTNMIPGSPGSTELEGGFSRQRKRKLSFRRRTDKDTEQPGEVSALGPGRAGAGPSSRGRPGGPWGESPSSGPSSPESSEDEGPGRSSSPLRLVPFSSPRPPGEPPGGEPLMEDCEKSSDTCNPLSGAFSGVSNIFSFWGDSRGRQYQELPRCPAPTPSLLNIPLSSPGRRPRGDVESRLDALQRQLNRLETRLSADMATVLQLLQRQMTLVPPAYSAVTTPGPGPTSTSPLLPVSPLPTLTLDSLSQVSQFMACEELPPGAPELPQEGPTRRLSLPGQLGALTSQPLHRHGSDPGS
UniProt P10635, whole entry: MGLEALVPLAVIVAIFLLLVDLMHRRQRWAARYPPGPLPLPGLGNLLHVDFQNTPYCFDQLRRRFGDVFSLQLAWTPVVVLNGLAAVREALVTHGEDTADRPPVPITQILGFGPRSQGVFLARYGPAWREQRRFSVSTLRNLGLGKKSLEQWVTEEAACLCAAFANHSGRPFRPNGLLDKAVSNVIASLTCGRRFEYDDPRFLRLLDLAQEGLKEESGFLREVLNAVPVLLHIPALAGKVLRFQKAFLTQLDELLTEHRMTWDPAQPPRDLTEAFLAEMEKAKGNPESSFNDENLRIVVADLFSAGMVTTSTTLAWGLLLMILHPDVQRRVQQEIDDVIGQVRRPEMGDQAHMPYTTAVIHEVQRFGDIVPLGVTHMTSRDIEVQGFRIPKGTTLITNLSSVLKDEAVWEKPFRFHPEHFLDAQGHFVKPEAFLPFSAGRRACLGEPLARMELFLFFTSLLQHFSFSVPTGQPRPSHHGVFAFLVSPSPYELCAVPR

Columns and labels:
human NR1/NR2A = human NR1/NR2A (Homo sapiens (Human), UniProt Q05586+Q12879); assay: NR2A antagonist activity, Fluo-4 calcium influx assay in HEK293 cells; assay type: cell-based
Method: (§1) Activation of the NR2A or NR2B subtype of NMDA receptor with glutamate as an agonist and glycine co-agonist on these cells results in calcium influx, which can be monitored with fluorescent indicator Fluo-4.
(§2) For experiments, the cells were seeded onto poly-D-lysine-coated 96-well black plates with clear bottom (Corning) at a density of ˜50,000 cells/well. After overnight culture, the growth medium was removed from the wells and the cells were incubated at 37° C. for 60 min in Hanks buffer containing 4 μM fluo-4-AM (Invitrogen) and 0.1% bovine serum albumin (BSA). After dye-loading, the cells were washed three times with Hanks buffer and incubated for 10 min at room temperature with various concentrations of test compounds prepared in Hanks buffer with 0.1% BSA. The cell plates were placed onto FDSS μCell fluorescence reader (Hamamatsu). After 20 sec reading of background fluorescence, agonist glutamate at final 100 μM and co-agonist glycine at final 50 μM were added to the cells to activate the receptor, and the resulting fluorescence changes were recorded and quantified.

human NR1/NR2B = human NR1/NR2B (Homo sapiens (Human), UniProt Q13224); assay: NR2B antagonist activity, Fluo-4 calcium influx assay in HEK293 cells; assay type: cell-based; settings: HEK293 cells stably expressing NR2B; glutamate 100 μM, glycine 50 μM
Method: as §1, §2

hERG channel = hERG channel (Homo sapiens (Human), UniProt Q12809); assay: hERG channel inhibition, whole cell patch clamp in HEK293 cells; assay type: cell-based; settings: hERG stably expressed in HEK293 cells
CYP2D6 = CYP2D6 (Homo sapiens (Human), UniProt P10635); assay: CYP P450 enzyme inhibition in pooled human liver microsome

| Structure (SMILES) | IC50 (human NR1/NR2A) [µM] | IC50 (human NR1/NR2B) [µM] | IC50 (hERG channel) [µM] | IC50 (CYP2D6) [µM] | IC50 (human NR1/NR2A; HEK293 cells stably expressing NR2A, glutamate 100 μM, glycine 50 μM, read-out: NR2A IC50) [µM] |
| --- | --- | --- | --- | --- | --- |
| FC(F)(F)Oc1ccc(C(F)(F)CN2CCC(Nc3ncnc4[nH]ncc34)CC2)nc1 [C-11] | > 10 | 0.028 |  |  |  |
| Fc1cc(C(F)(F)F)cnc1C(F)(F)CN1CCC(Nc2ncnc3[nH]ncc23)CC1 [C-18, N-(1-(2,2-difluoro-2-(3-fluoro-5-(trifluoromethyl)pyridin-2-yl)-ethyl)piperidin-4-yl)-1H-pyrazolo[3,4-d]pyrimidin-4-amine] |  |  | 12 | 11.5 |  |
| Cc1n[nH]c2ncnc(NC3CCN(CC(F)(F)c4ccc(C(F)(F)F)nc4)CC3)c12 [C-142, N-(1-(2,2-difluoro-2-(6-(trifluoromethyl)pyridin-3-yl)ethyl)piperidin-4-yl)-3-methyl-1H-pyrazolo[3,4-d]pyrimidin-4-amine] |  | 0.089 |  |  | > 10 |
